Values of other authors as cited in patent US7906545B2, “Prodrugs of CC-1065 analogs” (priority 2002, dated 2011).

Tested on: carboxylesterase
Conditions: in humans, presumably by carboxylesterase; cited from earlier work

CCc1c2c(nc3ccc(OC(=O)N4CCC(N5CCCCC5)CC4)cc13)-c1cc3c(c(=O)n1C2)COC(=O)[C@]3(O)CC [irinotecan]
conversion in vivo to the active drug: readily converted
